Values quoted from earlier work, collected in patent US4783530A, “8-arylxanthines” (priority 1987, dated 1988).

Tested on: adenosine receptors
Conditions: cited from earlier work

Cn1c(=O)c2[nH]cnc2n(C)c1=O [aminophylline]
adenosine antagonism (in words): weak nonselective adenosine antagonists

Cn1c(=O)c2[nH]cnc2n(C)c1=O [theophylline]
degree of selectivity (in words): do not show any remarkable degree of selectivity
